By UniProt entry, the sequences of proteins in these tests, tags left out.
UniProt P31388, whole entry: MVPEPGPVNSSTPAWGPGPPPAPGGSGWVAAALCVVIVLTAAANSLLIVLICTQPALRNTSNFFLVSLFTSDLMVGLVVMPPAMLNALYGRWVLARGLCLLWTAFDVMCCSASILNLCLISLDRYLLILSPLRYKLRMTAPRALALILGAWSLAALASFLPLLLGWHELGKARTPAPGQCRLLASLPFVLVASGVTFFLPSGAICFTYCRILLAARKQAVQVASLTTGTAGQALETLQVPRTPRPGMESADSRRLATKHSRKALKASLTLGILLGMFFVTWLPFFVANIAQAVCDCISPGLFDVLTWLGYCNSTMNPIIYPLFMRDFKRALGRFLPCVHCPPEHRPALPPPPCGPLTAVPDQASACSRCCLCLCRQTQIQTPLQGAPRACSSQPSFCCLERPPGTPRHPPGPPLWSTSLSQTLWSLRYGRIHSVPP

In BindingDB's records for doi:10.1124/mol.64.6.1295 (Glaxosmithkline, 2003):

Molecular target: 5-hydroxytryptamine receptor 6 (Rattus norvegicus, UniProt P31388)

Work on CSc1ccc2c(c1)C(N1CCN(C)CC1)Cc1ccccc1S2 (stereo unspecified) [methanesulfonic acid;1-methyl-4-(3-methylsulfanyl-5,6-dihydrobenzo[b][1]benzothiepin-5-yl)piperazine] yielded a Ki of 1.05 nM.
